Experimental data published in ChEMBL document CHEMBL3886520, “Orvinol and thevinol derivatives useful in the treatment of depression” (2016).

Chains of the proteins cited; added tags and fusions are not shown.
UniProt P41146, whole entry: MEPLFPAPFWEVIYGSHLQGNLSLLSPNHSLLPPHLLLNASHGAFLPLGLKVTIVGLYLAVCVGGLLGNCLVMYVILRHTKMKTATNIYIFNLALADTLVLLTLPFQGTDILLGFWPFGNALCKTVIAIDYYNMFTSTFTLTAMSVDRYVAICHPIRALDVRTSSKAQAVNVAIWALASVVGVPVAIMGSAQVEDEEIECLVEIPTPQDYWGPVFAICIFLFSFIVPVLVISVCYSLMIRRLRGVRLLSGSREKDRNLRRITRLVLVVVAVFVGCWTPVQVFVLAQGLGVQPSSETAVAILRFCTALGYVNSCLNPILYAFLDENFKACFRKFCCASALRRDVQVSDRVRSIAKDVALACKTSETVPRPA

Target: Nociceptin receptor (Homo sapiens, UniProt P41146)
Assay: Ligand Binding Assays: As Alt et al., 2002. Membranes (20 ug) are incubated in 50 mM Tris-HCl, pH 7.4 with [3H]diprenorphine or [3H]nociceptin in the absence or presence of varying concentrations of test compounds for 60 min in a shaking water bath at 25° C. Nonspecific binding is measured using 10 uM naloxone (MOR, DOR, KOR) or N/OFQ (NOP). Samples are filtered through GF/C glass-fiber filtermats
Conditions: brandel

Compound `CO[C@]12CC[C@@]3(C[C@@H]1[C@](C)(O)c1cccs1)[C@H]1Cc4ccc(O)c5c4[C@@]3(CCN1CC1CC1)[C@H]2O5` has a Ki of 34.5 nM.
